Assay results: US10244779B2, “Method of improving stability of sweet enhancer and composition containing stabilized sweet enhancer” (SENOMYX, INC., priority 2010, dated 2019)

Conditions: buffer, 100 ppm, pH 2.8
Experimental: Aqueous buffer solution at pH 7.1 contains 50 mM potassium dihydrogen phosphate and ˜32 mM sodium hydroxide (solutions of 1.0 M hydrochloric acid and 1.0 M sodium hydroxide are used to adjust pH). Aqueous buffer solution at pH 4.0 contains 50 mM citric acidmonosodium salt and ˜7.4 mM sodium hydroxide (solutions of 1.0 M hydrochloric acid and 1.0 M sodium hydroxide are used to adjust pH). Aqueous buffer solution at pH 2.8 contains 50 mM citric acid and ˜16 mM sodium hydroxide (solutions of 1.0 M hydrochloric acid and 1.0 M sodium hydroxide are used to adjust pH).
The stock solutions of the test compounds at 25 mM are made by dissolving the compounds in dimethyl sulfoxide. The solutions of the stabilizers are made by dissolving the materials in the aqueous buffers. The stock solutions are then diluted to 25 μM with the stabilizer solutions to prepare the test solution and 4-mL aliquots of the solutions are transferred to 20-mL clear glass vial for testing. […]
The samples are analyzed using an Agilent 1100 LC/MSD equipped with a quaternary pump and a diode-array detector (DAD). The peak areas from the MSD chromatograms are used for quantitation, and the photostability is shown by plotting the percentages of the test compound which remains intact at all time points. The peak areas from the DAD chromatograms are used for quantitation for stabilizers with concentration at 250 uM or higher. […]

COc1cc2ccc(=O)oc2cc1O [scopoletin]
% Remaining @ 1 hr (1 h): 103.59% | % Remaining @ 2 hrs (2 h): 104.11%
